{"source": "patent US9368421B2", "about": "“Under-fill material and method for producing semiconductor device” (NITTO DENKO CORPORATION, priority 2011, dated 2016)", "assay": "Acid dissociation constant pKa of flux agent", "details": "dilute aqueous solution", "data": [{"smiles": "CCCCCCCC/C=C\\CCCCCCCC(=O)O", "note": "[Oleic acid, oleic acid]", "values": [{"measurement": "pKa", "result": 5}]}]}
